Measurements as given in patent publication US20100144793A1, “NOVEL COMPOUNDS FOR THE TREATMENT OF DISEASES ASSOCIATED WITH AMYLOID OR AMYLOID-LIKE PROTEINS” (AC IMMUNE SA, priority 2006, published 2010).
Where a name gives a salt, the structure may show the parent alone.

Sequences of proteins named here, by UniProt entry; tags and fusion partners are left off. Residues count along the entry.
UniProt P05067, 672-713 limits assumed: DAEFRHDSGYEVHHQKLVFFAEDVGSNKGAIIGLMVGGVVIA

Biological target: T1, Aβ1-42 (Homo sapiens, UniProt P05067)
T1 construct: Aβ1-42 lyophilized powder (Bachem) was reconstituted in hexafluoroisopropanol (HFIP) to 1 mM; purchased Bachem
Assay: Thioflavin T spectrofluorescence assay: inhibition of Aβ1-42 aggregation
Format: biochemical
Protocol: The objective of this example was to evaluate the capacity of the compounds of the invention to inhibit the aggregation of (Aβ)1-42 peptide and to disaggregate pre-aggregated Aβ1-42 using a thioflavin T spectrofluorescence assay.
Aβ1-42 lyophilized powder (Bachem) was reconstituted in hexafluoroisopropanol (HFIP) to 1 mM. The peptide solution was sonicated for 15 min at room temperature, agitated overnight, and aliquots were placed into non-siliconized microcentrifuge tubes. The HFIP was then evaporated under a stream of argon. The resulting peptide film was dried under vacuum for 10 min, tightly sealed and stored at −80° C. until used.
Aβ1-42 peptide film was dissolved in DMSO to reach 400 μM. Assay solution in PBS was prepared in non-siliconized incubation tubes to reach the following concentrations: 330 μM small molecule, 33 μM Aβ1-42, 10 μM thioflavin T (ThT), and 12.8% DMSO. Therefore, the final molar ratio of small molecule to Aβ1-42 was 10:1. A positive control without a small molecule was prepared to measure maximum RFU. […] The solutions were then incubated for 24 h at 37° C., and the spectrofluorescence (relative fluorescence units; RFU) read in six replicates in black 384-well assay plates (Perkin-Elmer) on a Perkin-Elmer FluoroCount spectrofluorometer. Inhibition of aggregation is expressed as mean % inhibition±1 standard deviation (SD) according to the following equation: […]

With `c1ccc(-c2ccc(-c3cc(NCCNc4cc(-c5ccc(-c6ccccc6)cc5)[nH]n4)n[nH]3)cc2)cc1` [Compound 1am, N^1-(5-(Biphenyl-4-yl)-1H-pyrazol-3-yl)-N^2-(3-(biphenyl-4-yl)-1H-pyrazol-5-yl)ethane-1,2-diamine bishydrochloride] the “inhibition of Aβ1-42 aggregation, in words” value (10:1 small molecule to Aβ1-42 molar ratio) was “strong inhibition of aggregation” and the inhibition at 330 µM (24 h) was 73.9 ± 4%.
